# Ab-14 light chain CDR variants: yeast mating affinities

Reference: Engelhart et al. 2022, doi:10.1038/s41597-022-01779-4. File: FLAb, binding data.

Binding partner: SARS-CoV-2 spike HR2 peptide, sequence PDVDLGDISGINAS.

Ab-14 is the parent antibody, in scFv form: VH, then a (GGGGS)3 linker, then VL. The heavy chain is unchanged in all variants.
VH: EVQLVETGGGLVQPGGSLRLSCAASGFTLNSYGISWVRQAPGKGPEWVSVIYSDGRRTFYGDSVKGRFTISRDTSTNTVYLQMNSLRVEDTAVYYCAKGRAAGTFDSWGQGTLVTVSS
VL: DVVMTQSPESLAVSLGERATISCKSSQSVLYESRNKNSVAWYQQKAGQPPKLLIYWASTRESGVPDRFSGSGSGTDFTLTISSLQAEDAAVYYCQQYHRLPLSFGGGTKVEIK

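The parent was found by panning a naive human phage display library on the peptide. In library AAYL50, one, two or three CDR residues were substituted; doubles and triples were drawn at random. AlphaSeq pools MATa yeast showing the antibodies with MATalpha yeast showing the peptide. Pairs that bind mate more often; barcode pairs of the diploids are counted by sequencing. Scores were corrected for input abundance and mapped to Kd with protein pairs of known affinity run in the same pool. There are three technical replicates.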

Each variant is given by its three light chain CDRs, as the data file delimits them; those of the parent are KSSQSVLYESRNKNSVA, WASTRES, QQYHRLPLS.
Scale: log10 of Kd in nM, estimated from mating counts; low values are strong binders.
Averages over replicates are reported, and they cover detected replicates only.
Where no diploid with the target was found in any replicate, the entry reads "not detected": below detection, most likely a poor binder, though not proof of it.
Three control strains display no target. For library AAYL50, 18% of the pairings with them gave a signal, with a median of 4.19 and one signal in twenty below 2.99, so weak values seen in few replicates may be background. For each scFv, signals with the empty controls are counted beside the result.
In this assay the parent's reference entry averaged 0.65; its copy inside this library read 1.68.

mean log10 Kd (nM)	seen in	signal with controls	CDR-L1	CDR-L2	CDR-L3
not detected	0 of 3	0 of 9	KSSQYVLYESRNKNSVA	WASTIES	QQYHRLWLS
2.73	3 of 3	2 of 9	KSSQSPLYESRNKNEVA	WADTRES	QQYHRLPLS
5.43	1 of 3	2 of 9	KYSQSVLYYSRNKNSVH	WASTRES	QQYHRLPLS
1.72	3 of 3	1 of 9	WSSQSVLYESREKNSVA	WASTREQ	QQYHRLPLS
4.62	1 of 3	3 of 9	CSSQSVLYESRNKNSVA	WASTQES	QQYHRLPES
1.22	3 of 3	0 of 9	KSSQSVLYESRNCNSVA	MARTRES	QQYHRLPLS
4.27	1 of 3	2 of 9	KSSQSVLYQSRNKNSVA	WASTRQS	QQYHCLPLS
not detected	0 of 3	2 of 9	ISSQSVLYEFRNKNSVA	WASTRES	SQYHRLPLS
4.13	2 of 3	1 of 9	KSSQSVLYESPNKDSVA	WASTRES	QQYHRLPLS
not detected	0 of 3	0 of 9	KSSQSVLYMSRNKNSVA	WACTTES	QQYHRLPLS
1.61	3 of 3	2 of 9	KYSQSVLFESRNKNSVA	WASTRES	QQYHRLPLS
5.46	3 of 3	5 of 9	KSSQSVLYESRNKVVVA	WASTRES	QQVHRLPLS
1.61	3 of 3	3 of 9	KSEQSVLYESRNKNQVA	WASTRES	QQYHRLHLS
not detected	0 of 3	0 of 9	HSSQSVLYESRNKNSVA	WASTRES	QQYHRLGLK
0.27	3 of 3	0 of 9	KSSQSVLYESRVKNSVA	HASTRES	QQYVRLPLS
3.59	1 of 3	2 of 9	KSSQSVLYESRNKNSVY	WAPTRES	QQSHRLPLS
not detected	0 of 3	4 of 9	KSSQSVLDESRNKNSVA	WQSTRES	QQYHRLPES
not detected	0 of 3	1 of 9	YSSQSVLYESRNKNSYA	WASIRES	QQYHRLPLS
0.76	3 of 3	2 of 9	KSSQSVLYESRNSGPVA	WASTRES	QQYHRLPLS
0.68	3 of 3	4 of 9	KSSQSVFYERTNKNSVA	WASTRES	QQYHRLPLS
2.41	3 of 3	4 of 9	KSRQSVLYESRNKNSVA	TASTRES	QQYHRLPGS
1.02	3 of 3	4 of 9	KFSQSQLYESRNKNSVA	WMSTRES	QQYHRLPLS
0.57	3 of 3	5 of 9	KSSQSVLYESRNKNSVA	QLSTRES	QQYHRLPLA
4.52	2 of 3	3 of 9	KSSDSVLYESRNKNSVA	VASTRES	QQYHSLPLS
1.04	3 of 3	1 of 9	KSKQSVLYESRNKNSVA	WASTRAS	QQYHRLPFS
not detected	0 of 3	0 of 9	KSSQSVLYCSRNKNSVE	WASTRES	QQYHRLPFS
1.95	3 of 3	1 of 9	KSSQSVLYESRNKNSVA	WASMREE	WQYHRLPLS
4.35	3 of 3	3 of 9	KSSQSVLYESRNKNSVA	WASTRES	FTYHRLPLS
5.45	1 of 3	1 of 9	KSSQSVLYEGRNANSVR	WASTRES	QQYHRLPLS
3.46	2 of 3	1 of 9	KSPQSVLPESRNKNSVA	WASTVES	QQYHRLPLS
4.96	2 of 3	1 of 9	KSSQSVLYGSRNPNSVA	WASTRES	QQYHGLPLS
-0.10	3 of 3	2 of 9	KSSQSVLSESRNWNSVA	AASTRES	QQYHRLPLS
not detected	0 of 3	0 of 9	KSSQSVLYESYNKNSVA	WAMTRES	QQYHRFPLS
1.66	3 of 3	6 of 9	KSSQSVLYESHNKNSVA	WASTRES	QQYHILPLY
3.09	3 of 3	1 of 9	KSSQSVLYETREKNTVA	WASTRES	QQYHRLPLS
2.84	2 of 3	0 of 9	KSSQSVLYESRNKNSVA	WASTRAS	QMYHPLPLS
2.23	3 of 3	1 of 9	KSSPSVLYESRNKNHVA	WASTRES	QSYHRLPLS
1.70	3 of 3	3 of 9	KSSQSVLYESRNKNSVA	WASHRES	QQVYRLPLS
5.15	2 of 3	7 of 9	KSSQSVLYESRNKNWVA	WWSTRES	QQYHRLPLY
0.91	3 of 3	2 of 9	KSSQSVLYQSRCKNSVA	WASTREE	QQYHRLPLS
1.12	3 of 3	1 of 9	KSSQSVHYESRNKNSVA	WASTRES	QQYHALPFS
2.88	1 of 3	6 of 9	KSSQSQLYESRNKNSVA	WASTRES	MQYHRLPLS
3.35	2 of 3	0 of 9	KSSQSVLYESRNKNSVA	WATTRES	QIYHRLPLS
4.06	2 of 3	1 of 9	KSSQSVLFESRNKNSVA	WASTRES	QQYGRLHLS
3.64	3 of 3	3 of 9	KSSQFVLYKSRNKNSVA	WASTRET	QQYHRLPLS
2.27	3 of 3	1 of 9	KSLQSVLYESRNKNSVA	WASTRES	QQYHRIPLS
not detected	0 of 3	1 of 9	KDSQSVLYESRNKNSVA	WASTRES	EQYPRLPLS
1.86	3 of 3	2 of 9	KSSQSVNYASRNKNSVA	WESTRES	QQYHRLPLS
not detected	0 of 3	1 of 9	KSSQKVLYESRNKNSVA	PASTRES	QQYHRLPLS
1.31	3 of 3	1 of 9	KDSQSVLYESRNKNSVA	WASTRES	QQYWRLELS
4.58	3 of 3	7 of 9	KSSQSVLYESRPKQSVA	WASTRES	QQYHRLPLP
1.31	3 of 3	2 of 9	KSSQSVLNESRTKNSVA	WASTRES	QQYHRLPCS
not detected	0 of 3	0 of 9	KSSQSVLYESRNKNSVA	WASMQES	QCYHRLPLS
1.32	3 of 3	2 of 9	KSSQSVLYESRNKNSVA	WASYREP	QQYHYLPLS

Top 8 of the variants detected in all replicates, tightest first:

CDR-L1	CDR-L2	CDR-L3	mean log10 Kd (nM)	seen in	signal with controls
KSSQSVLSESRNWNSVA	AASTRES	QQYHRLPLS	-0.10	3 of 3	2 of 9
KSSQSVLYESRVKNSVA	HASTRES	QQYVRLPLS	0.27	3 of 3	0 of 9
KSSQSVLYESRNKNSVA	QLSTRES	QQYHRLPLA	0.57	3 of 3	5 of 9
KSSQSVFYERTNKNSVA	WASTRES	QQYHRLPLS	0.68	3 of 3	4 of 9
KSSQSVLYESRNSGPVA	WASTRES	QQYHRLPLS	0.76	3 of 3	2 of 9
KSSQSVLYQSRCKNSVA	WASTREE	QQYHRLPLS	0.91	3 of 3	2 of 9
KFSQSQLYESRNKNSVA	WMSTRES	QQYHRLPLS	1.02	3 of 3	4 of 9
KSKQSVLYESRNKNSVA	WASTRAS	QQYHRLPFS	1.04	3 of 3	1 of 9